Source: publication PMC4033217, “Characterization of Novel PI3Kδ Inhibitors as Potential Therapeutics for SLE and Lupus Nephritis in Pre-Clinical Studies” (Frontiers in Immunology, 2014)
Read-outs that look alike come from different tables or passages of the source.

Test system: CD19+ B cells
Test: B cell cytokine release assay (anti-Ig, CpG ODN 2006, IFNα)
Format: cell-based, human

Compound O=C(c1nn(-c2ccc(CN3CCOCC3)cc2)c2c1CS(=O)(=O)c1c(F)cccc1-2)N1CCOCC1 has an IC50 (read-out: IC50 IL-6, 48 h) of 88 nM and an IC50 (read-out: IC50 IL-10, 48 h) of 81 nM.
